Earlier results, collected in patent US20030083321A1, “Composition and method for minimizing or avoiding adverse effects of vesicants” (published 2003).
Where two headings read alike, the source gives them in different places.

Protein sequences, listed by entry. Tags and fused reporters are not part of them. Residues count along the entry.
UniProt P78536, 215-824 limits assumed: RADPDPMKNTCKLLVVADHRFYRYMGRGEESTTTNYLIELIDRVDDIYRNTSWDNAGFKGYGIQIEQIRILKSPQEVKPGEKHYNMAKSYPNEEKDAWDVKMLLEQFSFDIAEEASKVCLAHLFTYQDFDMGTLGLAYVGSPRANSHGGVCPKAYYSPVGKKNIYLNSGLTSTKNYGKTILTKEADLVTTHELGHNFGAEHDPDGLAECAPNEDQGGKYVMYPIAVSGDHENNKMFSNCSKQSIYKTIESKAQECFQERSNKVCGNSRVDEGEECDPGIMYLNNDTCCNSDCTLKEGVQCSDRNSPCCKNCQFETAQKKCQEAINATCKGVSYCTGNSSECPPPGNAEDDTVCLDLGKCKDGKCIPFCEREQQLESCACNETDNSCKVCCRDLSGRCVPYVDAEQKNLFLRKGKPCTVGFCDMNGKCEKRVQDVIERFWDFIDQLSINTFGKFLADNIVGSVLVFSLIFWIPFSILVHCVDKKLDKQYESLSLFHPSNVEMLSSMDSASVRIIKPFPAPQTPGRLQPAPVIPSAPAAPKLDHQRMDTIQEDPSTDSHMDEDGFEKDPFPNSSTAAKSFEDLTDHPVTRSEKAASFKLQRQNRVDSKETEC

Legend:
[1] = system: protease which can be stimulated by exposure of NHEK cells to mustard in the presence of calcium ions; conditions: for inhibition of proteolytic activity: 1 mM concentration; for inhibition of mustard-stimulated protease: NHEK cells
[2] = biological target: TNF-alpha converting enzyme (Homo sapiens, UniProt P78536)

CC(C)CC(=O)N[C@H](C(=O)N[C@H](C(=O)N[C@@H](CC(C)C)[C@@H](O)CC(=O)N[C@@H](C)C(=O)N[C@@H](CC(C)C)[C@@H](O)CC(=O)O)C(C)C)C(C)C
inhibition of proteolytic activity [1]: not inhibited

C[C@@H]1C[C@@H]([C@H](O)CC2CC(=O)NC(=O)C2)C(=O)[C@@H](C)C1
inhibition of mustard-stimulated protease ([1]; 35 µM in the extracellular medium): completely inhibited

EGTA
inhibition of mustard-stimulated protease ([1]; 2 mM in the extracellular medium): completely inhibited

CNC(=O)[C@H](Cc1c[nH]c2ccccc12)NC(=O)[C@@H](CC(=O)NO)CC(C)C
inhibition of TNF-alpha converting enzyme, preventing release of soluble TNF-alpha [2]: ability to inhibit the TNF-alpha converting enzyme

CC(=O)N[C@@H](CC(C)C)C(=O)N[C@@H](CC(C)C)C(=O)N[C@H](C=O)CCCNC(=N)N
inhibition of proteolytic activity [1]: inhibited
